Protein sequences, listed by entry. Tags and fused reporters are not part of them.
UniProt Q15125, whole entry: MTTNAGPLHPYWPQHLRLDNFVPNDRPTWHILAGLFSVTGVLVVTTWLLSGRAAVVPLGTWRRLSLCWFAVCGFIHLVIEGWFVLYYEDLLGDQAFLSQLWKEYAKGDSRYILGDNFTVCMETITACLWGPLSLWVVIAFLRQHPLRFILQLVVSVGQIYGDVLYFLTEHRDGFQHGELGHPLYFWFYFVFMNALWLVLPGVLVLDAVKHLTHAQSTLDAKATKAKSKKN

The target of this experiment is EBP (Homo sapiens, UniProt Q15125). Put plainly: EBP Functional Assay (EBP immunoaffinity LC-MS assay). The settings on record: read-out: EBP Functional Assay; EBP enzyme from HEK293T cells; 30 min with inhibitor, then zymosterol-d5, 37° C., 4 h; percent conversion to dehydrolathosterol-d5 by LC-APCI MRM MS. On the procedure: The EBP immunoaffinity (IA) LC-MS assay measures the potency of small molecule inhibitors of EBP by quantifying their concentration-dependent changes in the enzyme's substrate and product using liquid chromatography atmospheric pressure chemical ionization multiple reaction monitoring mass spectrometry (LC-APCI MRM MS). HEK293T cells were utilized as the source of EBP enzyme. The enzyme was incubated with the small molecule inhibitors at variable concentrations for 30 min. Deuterated form of EBP substrate, zymosterol-d5 (Avanti Polar Lipids, Cat #700068P-1 mg), was then added and the plate was incubated at 37° C. for 4 h. Finally, the sterol isomers were extracted and injected to LC-APCI MRM MS. MRM transition used for the quantification for both zymosterol and […] (substrate and product of EBP enzymatic reaction, respectively) is 372.3-203.2, CE 30 and DP 80 in positive ion mode. Percent conversion of the zymosterol-d5 to dehydrolathosterol-d5 was used to derive IC50 curves. Tasin-1 (1′-[(4-Methoxyphenyl)sulfonyl]-4-methyl-1,4′-bipiperidine, CAS 792927-06-1) was used as the reference small molecule inhibitor.
Percent conversion versus the compound concentration data were fit to the following 4-parameter logistic model to generate IC50 curves: […]
In the case of `Cc1nc(C(F)(F)F)ccc1S(=O)(=O)N1CC2(CN([C@H]3CCOC[C@@H]3F)C2)C1` (relative stereo), the IC50 was in the range of 250 to 4000 nM.

Turning to `Cc1nc(C(F)(F)F)ccc1S(=O)(=O)N1CC2(CN(C3CCOC(C)C3)C2)C1` (single isomer, unassigned), the IC50 was under 100 nM.

Regarding `Cc1nc(C(F)(F)F)ccc1S(=O)(=O)N1CC2(CN([C@@H]3CCOC[C@@H]3F)C2)C1` (relative stereo), the IC50 was 100 to 250 nM.

Take `Cc1nc(C(F)(F)F)ccc1S(=O)(=O)N1CC2(CN(C3[C@H](C)COC[C@@H]3C)C2)C1` (single isomer, unassigned): the IC50 was under 100 nM.

Regarding `Cc1nc(C(F)(F)F)ccc1S(=O)(=O)N1CC2(CN(C3[C@@H](C)COC[C@@H]3C)C2)C1` (relative stereo), the IC50 is under 100 nM.

The values above are taken from patent US20250171463A1 (BIOGEN MA INC., priority 2022, published 2025).
